# Apparent affinities of Ab-95 variants for a coronavirus HR2 peptide

Source: Engelhart et al. 2022 (doi:10.1038/s41597-022-01779-4), MIT Lincoln Laboratory and A-Alpha Bio; data file from the FLAb repository.

The target is the same throughout: PDVDLGDISGINAS, from the HR2 region of SARS-CoV-2 spike.

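The starting antibody came from a phage panning campaign against this peptide. Library AAYL52 holds single substitutions and randomly drawn double and triple substitutions in the CDRs. In AlphaSeq, yeast of one mating type display the scFv and yeast of the other type display the target. Binding brings cells together so that they mate, and sequencing counts the barcode pairs among the diploids. Scores were corrected for input abundance and mapped to Kd with protein pairs of known affinity run in the same pool. There are three technical replicates.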

Ab-95 is the parent antibody, in scFv form: VH, then the linker GGGGSGGGGSGGGGS, then VL. The heavy chain is unchanged in all variants.
VH: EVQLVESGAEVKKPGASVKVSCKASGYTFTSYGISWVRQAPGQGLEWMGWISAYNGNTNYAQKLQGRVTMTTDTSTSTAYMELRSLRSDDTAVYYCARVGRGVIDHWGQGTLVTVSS
VL: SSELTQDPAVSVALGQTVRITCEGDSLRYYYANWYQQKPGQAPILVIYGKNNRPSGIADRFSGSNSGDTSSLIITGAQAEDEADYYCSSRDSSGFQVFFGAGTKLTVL

Substitutions are numbered in sequence along the VL above, starting at 1 (not Kabat).
Affinities are written as log10 Kd with Kd in nM; a lower number is a better binder.
Replicates are averaged; those with no signal do not enter the mean.
A pair that was not seen in that replicate is written "nd"; this usually means weak binding, but a binder can also be missed.

changes,log10 Kd (nM) by replicate,mean log10 Kd (nM),signal with controls
N33S+K50G+V97Y,5.09 / nd / nd,5.09,1 of 9 (2.47)
E23G+R53C+D91E,3.65 / 3.96 / nd,3.81,3 of 9 (3.50)
G24A+L27Y+S55N,4.96 / nd / nd,4.96,3 of 9 (3.65)
G24P+N52P+F95N,nd / nd / nd,nd,2 of 9 (4.65)
P54Y+R90A+G94T,4.17 / 4.62 / nd,4.40,0 of 9
G24I+R28G+S55E,3.14 / 3.13 / 2.95,3.07,5 of 9 (4.37)
E23D+S89M+D91N,3.33 / 3.92 / 2.70,3.32,1 of 9 (3.50)
G94W+V97W,nd / nd / nd,nd,1 of 9 (3.21)
P54L+S93D+F98I,nd / 4.37 / 3.84,4.11,3 of 9 (3.17)
N51D+V97W,nd / nd / nd,nd,0 of 9
A32Y+N51R,4.02 / nd / nd,4.02,3 of 9 (4.16)
Y29S+N51R+G94Q,3.11 / 3.99 / 3.91,3.67,5 of 9 (3.48)
K50L+S92E+G94M,4.49 / 4.04 / 4.89,4.47,3 of 9 (4.43)
E23W+G24V+S89T,nd / nd / nd,nd,0 of 9
Y30H+Y31C+N52I,1.26 / 1.26 / 0.99,1.17,2 of 9 (3.40)
R28L+G49H+F98G,3.20 / 3.82 / nd,3.51,2 of 9 (3.33)
D25G+Y30W+V97D,nd / 5.25 / 2.59,3.92,3 of 9 (3.93)
N51S+S88W+Q96M,nd / nd / nd,nd,1 of 9 (4.26)
E23I+D25K+A32M,3.38 / 3.42 / 3.30,3.37,2 of 9 (3.47)
A32I+S92D+Q96A,nd / nd / 3.13,3.13,0 of 9
Y29F+A32R+R90K,nd / nd / nd,nd,3 of 9 (4.60)
Y30F+Y31R+G94F,nd / 3.19 / nd,3.19,4 of 9 (4.37)
N33S+R53P+P54M,3.23 / 3.62 / nd,3.42,1 of 9 (4.66)
S55C+R90W+S92N,3.22 / 2.15 / 4.25,3.21,0 of 9
S26M+S55H,4.27 / 4.36 / 3.08,3.91,2 of 9 (3.72)
E23V+S55P+F95K,3.61 / 3.63 / 3.25,3.50,1 of 9 (3.29)
E23L+L27P+P54R,nd / nd / nd,nd,3 of 9 (4.32)
S55F+S89P+G94Q,3.38 / 2.97 / 3.04,3.13,4 of 9 (3.39)
R28H+N52C+F98G,3.69 / nd / 4.34,4.01,3 of 9 (3.84)
N33I+D91N,nd / nd / nd,nd,0 of 9
R28P+N51T+S89L,3.73 / 3.67 / 3.38,3.59,1 of 9 (5.34)
E23I+Y30F+N52F,2.92 / 3.77 / nd,3.35,6 of 9 (3.71)
Y29E+N52R+S92K,2.96 / 4.18 / 3.54,3.56,2 of 9 (3.62)
K50S+N51S+S89K,nd / nd / 4.28,4.28,2 of 9 (3.08)
G24H+Y31D+K50C,2.33 / 2.24 / 1.78,2.12,2 of 9 (3.50)
S26C+N51H+R53I,3.51 / 4.40 / 3.91,3.94,6 of 9 (3.91)
E23S+G24K+S88V,3.56 / 4.04 / 3.60,3.73,2 of 9 (3.95)
R53T+D91T+F98Q,3.28 / 3.80 / nd,3.54,3 of 9 (3.55)
G24L+D25Q+N52H,2.51 / 2.18 / 2.28,2.33,3 of 9 (3.97)
D25F+R28F+G94S,3.68 / 2.47 / 2.89,3.01,2 of 9 (3.75)
A32E+S88W+V97H,2.58 / 3.21 / 2.16,2.65,2 of 9 (4.30)
R28L+N51L+Q96K,nd / nd / nd,nd,5 of 9 (3.79)
G49N+S89E+V97H,3.11 / 2.78 / 3.44,3.11,5 of 9 (4.04)
D25Y+K50T+S88A,2.62 / 3.43 / 3.12,3.05,3 of 9 (4.21)
N52Y+S89T+S93I,4.06 / nd / nd,4.06,1 of 9 (3.58)
S26A+K50C+S92H,3.73 / 5.15 / nd,4.44,2 of 9 (3.09)
R53I+G94Q+F95Q,nd / nd / nd,nd,0 of 9

Three control strains display no target. For library AAYL52, 28% of the pairings with them gave a signal, with a median of 3.91 and one signal in twenty below 2.90, so weak values seen in few replicates may be background. For each scFv, signals with the empty controls are counted beside the result, with their mean in brackets.
Parent in this assay: reference entry 2.31, copy in this library 2.25.